Consider one compound from patent publication US7030139B2, “Compounds” (AstraZeneca AB, priority 2001, dated 2006).

Sequences of proteins named here, by UniProt entry; tags and fusion partners are left off.
UniProt P34972, whole entry: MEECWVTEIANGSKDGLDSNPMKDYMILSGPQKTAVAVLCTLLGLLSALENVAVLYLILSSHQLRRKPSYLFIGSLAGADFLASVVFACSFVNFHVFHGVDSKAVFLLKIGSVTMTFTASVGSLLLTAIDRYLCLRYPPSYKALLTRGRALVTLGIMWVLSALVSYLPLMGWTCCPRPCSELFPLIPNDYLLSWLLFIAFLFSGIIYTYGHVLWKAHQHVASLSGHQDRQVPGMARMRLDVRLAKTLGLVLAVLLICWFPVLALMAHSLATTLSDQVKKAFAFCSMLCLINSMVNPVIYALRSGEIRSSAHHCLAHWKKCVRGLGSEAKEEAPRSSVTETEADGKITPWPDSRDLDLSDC

The term IC50 denotes the concentration needed to halve the response being measured. By EC50 is commonly meant the concentration giving half of the maximal effect.

For assay [1], the target named is T1, hCB2 (Homo sapiens, UniProt P34972). As to the kind of experiment: hCB2 receptor binding (3H-CP55,940 displacement, membranes). Conditions: read-out: hCB2 IC50, Table 2, human CB2 membranes.
Assay [2] concerns the target T1, hCB2. Put plainly: hCB2 GTPγS binding. Type of assay: biochemical. For orientation: GTPγS is a poorly hydrolysed GTP analogue; its binding reports G protein activation.

The structures appear in SMILES notation. This is a selection: effects in other tests are not listed, and their absence says nothing.

Consider `CCOc1ccc(Cc2nc3cc(N(C)C(=O)CC(C)C)ccc3n2C[C@H]2CCCN2)cc1`, for which the 50% inhibitory concentration (IC50) at hCB2 [1] stood at 27 nM. Besides, the “Emax (%)” value at hCB2 [2] (Table 2, maximal stimulated binding defined with 1 μM Win 55,212-2) was found to be 33%. The EC50 on hCB2 [2] (read-out: hCB2 EC50, Table 2, human CB2 membranes) is 9 nM.
